Antibody variant affinities, Ab-14 light chain, assay B

Reference: Li et al. 2023, doi:10.1038/s41467-023-39022-2. File: FLAb, binding data.

Target peptide (SARS-CoV-2 spike, HR2 region): PDVDLGDISGINAS

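The starting antibody came from a phage panning campaign against this peptide. Designed CDR sequences, proposed from the first random library and measured here. Group labels follow the data file (Ctrl: baseline library sampled from a position-specific scoring matrix, with some repeated check sequences; Rand: our label for a block that the file lists under HC and that is probably the random mutants of the ten best first-round binders; En: ensemble of fine-tuned language models; GP: Gaussian process model; GPLM: also part of the Gaussian process libraries; HC: hill climbing; Gen: genetic algorithm; Gibbs: Gibbs sampling; a sequence that several methods proposed may carry one label only). In AlphaSeq, yeast of one mating type display the scFv and yeast of the other type display the target. Binding brings cells together so that they mate, and sequencing counts the barcode pairs among the diploids. Read counts were normalised to the haploid input and turned into Kd by a linear fit to BCL2-family pairs of known affinity, for each replicate. Mating was done six times.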

Ab-14 is the parent antibody, in scFv form: VH, then a 15-residue (Gly4Ser)3 linker, then VL. The heavy chain is unchanged in all variants.
VH: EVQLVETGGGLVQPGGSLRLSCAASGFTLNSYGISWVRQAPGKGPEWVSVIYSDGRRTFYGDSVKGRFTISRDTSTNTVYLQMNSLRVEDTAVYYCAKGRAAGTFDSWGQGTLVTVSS
VL: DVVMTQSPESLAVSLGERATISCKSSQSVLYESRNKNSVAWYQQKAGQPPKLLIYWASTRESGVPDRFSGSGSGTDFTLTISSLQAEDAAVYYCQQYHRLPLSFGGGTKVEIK

Each variant is given by its three light chain CDRs, as the data file delimits them; those of the parent are KSSQSVLYESRNKNSVA, WASTRES, QQYHRLPLS. Each Kd is an estimate from the mating assay, the geometric mean of the replicates in which the pair was seen; lower is stronger. "nd" marks a missing value. The strain was present, yet no cells mated with the target were sequenced in any replicate, which points to weak or no binding. The parent sequence was in this pool as ten entries: three were never detected, three once, and four in most replicates, with averages from 2.2 nM to 240 nM. The range of this assay differs from that of the first round, and the authors advise against merging the two. Empty control strains, which show no peptide, gave a signal in 4% of pairings with all light chain designs; the median was 430 nM and 95% of these signals were weaker than 38 nM. No background was subtracted. The control count says in how many pairings with the empty strains this scFv gave a signal. In the paper, a design with two or fewer of six values counts as a poor binder.

CDR-L1,CDR-L2,CDR-L3,group,Kd (apparent),detected,signal with controls
KSSQGVMYESRNKNSVA,NASTRES,QQYHRLPLS,Ctrl,1.3 nM,6 of 6,0 of 18
KSGQSDLYEERNKNSVA,WASTRES,QQYHRLPLS,Ctrl,320 nM,6 of 6,0 of 18
ILSQSVLMGMHTGNSVA,QATMRFN,QQYHRLPLM,En_HC,38 nM,6 of 6,0 of 18
KLLQEVGGRSQNRNSVA,HNSTRED,QQYDRLPLI,En_HC,410 nM,2 of 6,1 of 18
KLSQSWLYESRQKNSVA,NASTRES,QQYHRLPLS,GP_Gen,1.1 nM,6 of 6,1 of 18
KLDQSWWGEWRNKNSVA,HASTREQ,QDYHRLPLS,GP_Gibbs,2.8 nM,6 of 6,1 of 18
SLRLKELGMSYNANQVA,DSENRIK,QQYYRLPLM,En_Gibbs,12 nM,6 of 6,4 of 18
KLSQFVLFESRNKNSVA,DASTHES,QQYHRGPLS,Rand,nd,0 of 6,0 of 18
NMRNECYQYENYGNSIA,HANMRHN,QQYSRLPFT,En_Gibbs,4.4 nM,6 of 6,2 of 18
HFSQSQPYESRMFNSVA,NASLRFS,QQYHRLPLS,GP_Gibbs,2.9 nM,6 of 6,0 of 18
MISQVLNMLTREGNNVA,DLQERED,QQYFRLPLS,En_Gen,16 nM,6 of 6,0 of 18
HSSPSVLYESRNKNSVA,NASTRER,QQYHRLPLS,En_HC,2.7 nM,6 of 6,1 of 18
KLSQSVPYESRNKNSVA,HASTRES,QQYHRLPLS,GP_Gen,1.3 nM,6 of 6,0 of 18
KSSQSMLYESRNKNSVA,WASTRES,QQYHRLPLS,Ctrl,560 nM,4 of 6,1 of 18
KSSQSFDYESRNKNSVA,DASTRES,QQYHRLPLS,GP_Gen,1.1 nM,6 of 6,0 of 18
KIMSGTNGEKFQSNSIA,QTSTREE,QQYHRLPLS,En_HC,4.3 nM,6 of 6,1 of 18
KVSQSVLQLSRNQNSVA,EASTREA,QQYHRLPLS,GP_Gibbs,830 pM,6 of 6,1 of 18
KFSQSVDYESRNKNSVA,NASTRES,QQYHRLPLS,GP_Gen,1.2 nM,6 of 6,0 of 18
KSEKSVLFESRNKNSVA,NASTRES,QQYHRLPLS,GP_HC,9.7 nM,6 of 6,0 of 18
TISQSAQQESHNKNNVA,DLSVRGS,QQYHRLPLS,En_HC,3.5 nM,6 of 6,0 of 18
RLNVFQNVSTQGNNNIA,QAEQKVH,QQYMRLPLY,En_Gibbs,22 nM,6 of 6,0 of 18
KSSQSVLYESRNKNSVA,DASTRES,QQIHRLPLS,Ctrl,nd,0 of 6,1 of 18
KLSESMLYESRNKNSVA,NASTRES,QQYHRLPLS,GP_Gen,4.6 nM,6 of 6,0 of 18
KLRQSTLYESRNKNSVA,RASTRES,QQYHRLPLS,GPLM_HC,2.2 nM,6 of 6,2 of 18

Continued, with the values leading:

Kd (apparent),detected,signal with controls,CDR-L1,CDR-L2,CDR-L3,group
90 nM,5 of 6,0 of 18,KSDQSVLYENRNKNSVA,WASTRES,QQYHRLPLS,Ctrl
2.8 nM,6 of 6,2 of 18,KVSQEQDYQSRNINSVA,DASLRES,QQYHRLPLS,GP_Gibbs
3.0 nM,6 of 6,1 of 18,KISMLQRYESQNKNSIA,EMSRREN,QQYHRLPLS,En_HC
530 pM,6 of 6,2 of 18,KLSQSVLYETRNKNSVA,NASTRES,QQYHRLPLS,GP_Gen
570 pM,6 of 6,1 of 18,MLSYNLHDMDRNKNNVA,EMNKKTT,QDYHRLPLA,En_Gibbs
1.2 nM,6 of 6,0 of 18,KMSKSVPDESRNKNSVA,GASTRSS,QQYHRLPLS,Ctrl
2.1 nM,6 of 6,0 of 18,KFSQSVLYESRTKNSVA,NASTRET,QQYHRLPLW,GP_HC
1.9 nM,6 of 6,1 of 18,TLDLRTSYGNGLNKAIA,DVSIKDY,QQYARLPLL,En_Gibbs
1.4 nM,6 of 6,0 of 18,KHPQGVLYESRNKNSVA,GASVRES,QQYHRLPLS,GP_HC
31 nM,6 of 6,2 of 18,KFGGSVLYESRNKNSVA,WASTRNR,QQYQRLPLS,Ctrl
910 nM,4 of 6,3 of 18,TLSQMSGLEAVKHNSVA,ENSTREN,QQYDRLPLA,En_Gen
680 pM,6 of 6,0 of 18,KQSQVVLYESRNKNSVA,DASTREV,QQYHRLPLS,Rand
520 pM,6 of 6,0 of 18,KSSQSFLYESRNKNAVA,GASTRES,QQYMRLPLS,GP_HC
61 nM,4 of 6,0 of 18,MISQLTNMGQFAINSVA,QASLRCN,QQYDRLPLM,En_Gen
14 nM,6 of 6,1 of 18,KVQLGLERYNGDYSAVA,GETQKGD,QQYFQLPLG,En_Gibbs
360 nM,1 of 6,0 of 18,TISMSMNWLTFNKNSIA,EESTRED,QQYDRLPLS,En_HC
610 pM,6 of 6,4 of 18,KMEQSVLYESRNKNSVA,GASTRES,QQYHRLPLS,GP_HC
nd,0 of 6,0 of 18,KSGQSVLYASRNKNSVA,WATTREL,QQYERLPLS,Ctrl
62 nM,6 of 6,0 of 18,KISFWSYRGSLWHNNIA,EGSQRAE,QQYSRLPLN,En_Gibbs
190 nM,2 of 6,0 of 18,MISQLMNMGQFAINSVA,QAEIRND,QQYDRLPLA,En_Gen
nd,0 of 6,0 of 18,KSSQSVLYFSRNKNSVA,WASTRES,QQYHHLPLS,Ctrl
1.0 nM,6 of 6,0 of 18,KVSQGGPYEQRQKNSVA,NASQRES,QQYHRLPLS,GP_Gibbs
670 pM,6 of 6,0 of 18,KLPQSVPYESRNKNSVA,QASTRES,QQYHRLPLS,GP_Gen
3.6 nM,6 of 6,0 of 18,KSSWSVLFESRNKNSVA,EASTRSS,QQYHRLPLS,GP_HC

4 of these entries, quoted again:

{"CDR-L1": "KISFWSYRGSLWHNNIA", "CDR-L2": "EGSQRAE", "CDR-L3": "QQYSRLPLN", "group": "En_Gibbs", "Kd (apparent)": "62 nM", "detected": "6 of 6", "signal with controls": "0 of 18"}
{"CDR-L1": "KFSQSVLYESRTKNSVA", "CDR-L2": "NASTRET", "CDR-L3": "QQYHRLPLW", "group": "GP_HC", "Kd (apparent)": "2.1 nM", "detected": "6 of 6", "signal with controls": "0 of 18"}
{"CDR-L1": "HFSQSQPYESRMFNSVA", "CDR-L2": "NASLRFS", "CDR-L3": "QQYHRLPLS", "group": "GP_Gibbs", "Kd (apparent)": "2.9 nM", "detected": "6 of 6", "signal with controls": "0 of 18"}
{"CDR-L1": "KVQLGLERYNGDYSAVA", "CDR-L2": "GETQKGD", "CDR-L3": "QQYFQLPLG", "group": "En_Gibbs", "Kd (apparent)": "14 nM", "detected": "6 of 6", "signal with controls": "1 of 18"}